One data set concerns the target PPIL1 (Homo sapiens, UniProt Q9Y3C6). The data set can be described thus: Chymotrypsin coupled prolyl-isomerase assay. In kind it is biochemical.
A further data set concerns the target NKTR (Homo sapiens, UniProt P30414). The experiment in a line: Chymotrypsin coupled prolyl-isomerase assay. In kind it is biochemical. To be noted: read-out: Wild-Type Cyclophilin Prolyl Isomerase Inhibition IC50 Values, NKTR; wild-type NKTR.
A further data set deals with CypB (Homo sapiens, UniProt P23284).
In a further data set the target is CypG (Homo sapiens, UniProt Q13427). The experiment in a line: Chymotrypsin coupled prolyl-isomerase assay. In kind it is biochemical.
The target of the next data set is CypH (Homo sapiens, UniProt O43447). The data set can be described thus: Chymotrypsin coupled prolyl-isomerase assay. In kind it is biochemical.
The next data set concerns the target CypE (Homo sapiens, UniProt Q9UNP9). The experiment in a line: Chymotrypsin coupled prolyl-isomerase assay. In kind it is biochemical.
Another data set concerns the target CypA (Homo sapiens, UniProt P62937). The experiment in a line: Chymotrypsin coupled prolyl-isomerase assay. In kind it is biochemical.
The target of the next data set is PPWD1 (Homo sapiens, UniProt Q96BP3). The data set can be described thus: Chymotrypsin coupled prolyl-isomerase assay. In kind it is biochemical.
For a further data set, the target named is CypD (Homo sapiens, UniProt P30405). The experiment in a line: Chymotrypsin coupled prolyl-isomerase assay. In kind it is biochemical.
For a further data set, the target named is CypC (Homo sapiens, UniProt P45877). The experiment in a line: Chymotrypsin coupled prolyl-isomerase assay. In kind it is biochemical. To be noted: read-out: Wild-Type Cyclophilin Prolyl Isomerase Inhibition IC50 Values, CypC; wild-type CypC.
A further data set concerns the target Cyp40 (Homo sapiens, UniProt Q08752). The experiment in a line: Chymotrypsin coupled prolyl-isomerase assay. In kind it is biochemical.
Setting [1] is: read-out: Wild-Type Cyclophilin Prolyl Isomerase Inhibition IC50 Values, PPIL1, wild-type PPIL1.
Where [2] appears, read: read-out: Wild-Type Cyclophilin Prolyl Isomerase Inhibition IC50 Values, CypB, wild-type CypB.
[3] abbreviates: read-out: IC50 CypG, prolyl-isomerase inhibition, 5 nM cyclophilin.
The mark [4] stands for this setting: read-out: Wild-Type Cyclophilin Prolyl Isomerase Inhibition IC50 Values, CypG, wild-type CypG.
Setting [5] is: read-out: Wild-Type Cyclophilin Prolyl Isomerase Inhibition IC50 Values, CypH, wild-type CypH.
[6] abbreviates: read-out: Wild-Type Cyclophilin Prolyl Isomerase Inhibition IC50 Values, CypE, wild-type CypE.
Setting [7] is: read-out: Wild-Type Cyclophilin Prolyl Isomerase Inhibition IC50 Values, CypA, wild-type CypA.
The mark [8] stands for this setting: read-out: Wild-Type Cyclophilin Prolyl Isomerase Inhibition IC50 Values, PPWD1, wild-type PPWD1.
Where [9] appears, read: read-out: Wild-Type Cyclophilin Prolyl Isomerase Inhibition IC50 Values, CypD, wild-type CypD.
Setting [10] is: read-out: IC50 PPIL1, prolyl-isomerase inhibition, 5 nM cyclophilin.
[11] abbreviates: read-out: IC50 CypA, prolyl-isomerase inhibition, 5 nM cyclophilin.
Where [12] appears, read: read-out: IC50 PPWD1, prolyl-isomerase inhibition, 5 nM cyclophilin.

Amino acid sequences for entries named in this document (tags omitted). Residues count along the entry.
UniProt Q9Y3C6, whole entry: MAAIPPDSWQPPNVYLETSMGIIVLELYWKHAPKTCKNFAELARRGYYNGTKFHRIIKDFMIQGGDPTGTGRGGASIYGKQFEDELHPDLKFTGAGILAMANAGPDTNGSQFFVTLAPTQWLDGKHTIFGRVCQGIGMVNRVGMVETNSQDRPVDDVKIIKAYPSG
UniProt P30414, 7-179 limits assumed: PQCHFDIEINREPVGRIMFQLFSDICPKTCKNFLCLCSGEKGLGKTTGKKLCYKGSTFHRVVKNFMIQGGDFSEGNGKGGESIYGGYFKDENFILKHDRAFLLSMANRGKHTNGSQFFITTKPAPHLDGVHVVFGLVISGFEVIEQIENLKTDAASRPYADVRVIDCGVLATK
UniProt P23284, 34-216 limits assumed: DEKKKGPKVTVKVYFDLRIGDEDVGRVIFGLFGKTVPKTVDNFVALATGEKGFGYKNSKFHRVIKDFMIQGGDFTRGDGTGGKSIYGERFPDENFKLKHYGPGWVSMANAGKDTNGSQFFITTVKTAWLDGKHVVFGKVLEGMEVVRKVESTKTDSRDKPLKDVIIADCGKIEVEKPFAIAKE
UniProt Q13427, 1-179 limits assumed: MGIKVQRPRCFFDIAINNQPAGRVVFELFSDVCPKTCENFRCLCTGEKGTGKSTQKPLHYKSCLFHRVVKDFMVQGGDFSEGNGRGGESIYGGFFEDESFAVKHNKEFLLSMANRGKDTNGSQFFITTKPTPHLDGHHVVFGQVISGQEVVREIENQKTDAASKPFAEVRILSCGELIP
UniProt O43447, whole entry: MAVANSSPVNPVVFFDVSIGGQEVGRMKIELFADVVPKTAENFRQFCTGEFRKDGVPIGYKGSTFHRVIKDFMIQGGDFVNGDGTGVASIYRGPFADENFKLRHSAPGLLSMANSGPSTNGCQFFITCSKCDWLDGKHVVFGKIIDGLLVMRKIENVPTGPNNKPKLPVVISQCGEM
UniProt Q9UNP9, 131-301 limits assumed: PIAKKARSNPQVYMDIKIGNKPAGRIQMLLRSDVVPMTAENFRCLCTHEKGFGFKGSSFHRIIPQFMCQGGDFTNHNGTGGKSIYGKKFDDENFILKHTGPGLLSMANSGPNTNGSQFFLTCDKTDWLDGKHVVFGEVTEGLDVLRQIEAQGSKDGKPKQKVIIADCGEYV
UniProt P62937, whole entry: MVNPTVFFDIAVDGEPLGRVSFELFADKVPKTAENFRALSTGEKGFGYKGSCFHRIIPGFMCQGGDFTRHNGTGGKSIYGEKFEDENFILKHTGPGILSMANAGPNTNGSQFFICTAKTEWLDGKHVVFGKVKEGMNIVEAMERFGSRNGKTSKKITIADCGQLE
UniProt Q96BP3, 473-646 limits assumed: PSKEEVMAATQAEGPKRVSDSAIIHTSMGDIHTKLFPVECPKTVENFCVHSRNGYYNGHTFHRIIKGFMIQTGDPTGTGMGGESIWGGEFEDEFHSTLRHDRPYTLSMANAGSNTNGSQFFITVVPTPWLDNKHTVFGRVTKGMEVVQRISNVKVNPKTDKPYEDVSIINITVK
UniProt P30405, 45-207 limits assumed: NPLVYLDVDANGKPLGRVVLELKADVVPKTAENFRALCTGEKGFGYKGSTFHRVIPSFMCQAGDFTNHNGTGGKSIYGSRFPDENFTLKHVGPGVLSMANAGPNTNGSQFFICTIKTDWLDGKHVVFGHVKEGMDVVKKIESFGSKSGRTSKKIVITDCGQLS
UniProt P45877, 24-212 limits assumed: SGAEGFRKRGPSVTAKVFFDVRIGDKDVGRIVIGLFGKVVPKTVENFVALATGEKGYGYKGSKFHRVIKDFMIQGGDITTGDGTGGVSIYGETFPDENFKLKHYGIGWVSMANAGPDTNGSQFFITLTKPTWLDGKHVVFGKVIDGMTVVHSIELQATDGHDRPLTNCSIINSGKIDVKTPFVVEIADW
UniProt Q08752, 1-183 limits assumed: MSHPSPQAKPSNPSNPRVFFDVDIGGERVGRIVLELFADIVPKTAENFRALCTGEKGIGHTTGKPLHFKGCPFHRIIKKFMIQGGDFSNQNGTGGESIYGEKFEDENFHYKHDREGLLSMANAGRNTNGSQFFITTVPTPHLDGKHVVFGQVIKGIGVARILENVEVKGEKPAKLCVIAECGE

Like-named read-outs stand apart in the source and are kept apart here.

As usually defined, the IC50 is the point on the concentration scale where inhibition reaches its midpoint.

Take `NCCOCCNC(=O)[C@@H]1CCNC(=O)/C=C/C(=O)N2CCC[C@](Cc3ccccc3)(C2)C(=O)N[C@@H](Cc2ccc(-c3ccc(S(=O)(=O)CC(=O)O)cc3)cc2)C(=O)NCc2ccccc2CC(=O)N1`: the IC50 on PPIL1 (setting [1]) was 1 µM; at NKTR it was above 50 µM; on CypB (setting [2]) it was 0.4 µM; at CypG (setting [3]), 40 µM; on CypG (setting [4]), 40 µM; on CypH (setting [5]), above 50 µM. The IC50 at CypE (setting [6]) is 0.8 µM; at CypA (setting [7]), 3 µM; at PPWD1 (setting [8]), above 50 µM; at CypD (setting [9]), 0.19 µM; at CypC, 37 µM; against Cyp40, 4 µM.

Take `NCCOCCNC(=O)[C@@H]1CCNC(=O)/C=C/C(=O)N2CCC[C@](Cc3ccccc3)(C2)C(=O)N[C@@H](Cc2ccccc2)C(=O)NCc2ccccc2CC(=O)N1`: the IC50 on PPIL1 (setting [1]) stood at 2 µM; at NKTR, 8.1 µM; at CypB (setting [2]), 0.16 µM; at CypG (setting [4]), 3.7 µM; on CypH (setting [5]), 12 µM; on CypE (setting [6]), 0.78 µM. Also, the IC50 at CypA (setting [7]) turned out to be 1.5 µM; at PPWD1 (setting [8]), 14 µM; on CypD (setting [9]), 0.37 µM; at CypC, 1.2 µM; against Cyp40, 1.2 µM.

Take `NCCOCCNC(=O)[C@@H]1CCNC(=O)/C=C/C(=O)N2CCC[C@](Cc3ccccc3)(C2)C(=O)N[C@@H](Cc2ccc(-c3ccc4c(c3)OCC4CC(=O)O)cc2)C(=O)NCc2ccccc2CC(=O)N1` (single isomer, unassigned) [B49]: the IC50 is 3 µM on PPIL1 (setting [10]); 3 µM on PPIL1 (setting [1]); above 10 µM at NKTR; 1.2 µM at CypB (read-out: IC50 CypB, prolyl-isomerase inhibition, 5 nM cyclophilin); 1.2 µM at CypB (setting [2]); 2.1 µM on CypG (setting [4]). The IC50 was above 10 µM on CypH (setting [5]); 0.6 µM at CypE (setting [6]); 4 µM on CypA (setting [11]); 4 µM on CypA (setting [7]); above 10 µM on PPWD1 (setting [8]); 0.3 µM on CypD (setting [9]). Also, the IC50 at CypC and at Cyp40 was above 10 µM each time.

For `NCCOCCNC(=O)[C@@H]1CCNC(=O)/C=C/C(=O)N2CCC[C@](Cc3ccccc3)(C2)C(=O)N[C@@H](Cc2ccc(-c3ccc(CCN)cc3)cc2)C(=O)NCc2ccccc2CC(=O)N1`, the half-inhibitory concentration (IC50) is above 50 µM on NKTR; 4 µM at CypB (setting [2]); above 50 µM on CypH (setting [5]); 10 µM on CypE (read-out: IC50 CypE, prolyl-isomerase inhibition, 5 nM cyclophilin); 10 µM at CypE (setting [6]); 30 µM on CypA (setting [11]). For the same compound, the half-maximal inhibitory concentration (IC50) on CypA (setting [7]) stood at 30 µM; on PPWD1 (setting [8]), 7 µM; on CypD (read-out: IC50 CypD, prolyl-isomerase inhibition, 5 nM cyclophilin, Suc-AAPF-AMC, mean±s.e.m. of 3 technical replicates (B52, B53, C3A wild-type: mean±s.d. of 4 independent replicates)), 10 µM; on CypD (setting [9]), 10 µM; on CypC, 3 µM; on Cyp40, 12 µM. Besides, the “reduction in potency for CypD on replacing the carboxylate with an amine” value at CypD is on record as 500- to 1,000 fold.

Regarding `CS(=O)(=O)c1ccc(-c2ccc(C[C@@H]3NC(=O)[C@]4(Cc5ccccc5)CCCN(C4)C(=O)/C=C/C(=O)NCC[C@@H](C(=O)NCCOCCN)NC(=O)Cc4ccccc4CNC3=O)cc2)cc1`, the concentration for half-maximal inhibition (IC50) on PPIL1 (setting [1]) is 0.43 µM; at NKTR it was 70 µM; at CypB (setting [2]) it was 0.6 µM; at CypG (setting [4]), 27 µM; on CypH (setting [5]), 42 µM; at CypE (setting [6]), 1.4 µM. The 50% inhibitory concentration (IC50) was found to be 3 µM at CypA (setting [7]); 4.2 µM on PPWD1 (setting [8]); 0.4 µM at CypD (setting [9]); 3.5 µM at CypC; 0.9 µM at Cyp40 (read-out: Wild-Type Cyclophilin Prolyl Isomerase Inhibition IC50 Values, Cyp40, wild-type Cyp40).

As for `NCCOCCNC(=O)[C@@H]1CCNC(=O)/C=C/C(=O)N2CCC[C@](Cc3ccccc3)(C2)C(=O)N[C@@H](Cc2ccc(-c3ccc(CCCC(=O)O)cc3)cc2)C(=O)NCc2ccccc2CC(=O)N1`, the IC50 at PPIL1 (setting [1]) is 0.6 µM; at NKTR, above 50 µM; at CypB (setting [2]), 0.6 µM; on CypG (setting [3]), 30 µM; at CypG (setting [4]), 30 µM; on CypH (setting [5]), above 50 µM. In addition, the IC50 at CypE (setting [6]) came to 0.3 µM; on CypA (setting [7]), 1.8 µM; at PPWD1 (setting [12]), 36 µM; on PPWD1 (setting [8]) it was 36 µM; on CypD (setting [9]), 0.12 µM; on CypC, 21 µM. Besides, the IC50 against Cyp40 worked out at 4 µM.

In the case of `C[C@@H](Oc1ccc(-c2ccc(C[C@@H]3NC(=O)[C@]4(Cc5ccccc5)CCCN(C4)C(=O)/C=C/C(=O)NCC[C@@H](C(=O)NCCOCCN)NC(=O)Cc4ccccc4CNC3=O)cc2)cc1)C(=O)O`, the IC50 at PPIL1 (setting [10]) was 2 µM; at PPIL1 (setting [1]), 2 µM; on NKTR, above 10 µM; on CypB (setting [2]), 2 µM; at CypG (setting [3]), 10 µM; on CypG (setting [4]) it was 10 µM. Also, the IC50 on CypH (setting [5]) is above 10 µM; at CypE (setting [6]), 2.1 µM; at CypA (setting [11]), 10 µM; at CypA (setting [7]) it was 10 µM; on PPWD1 (setting [8]), above 10 µM; on CypD (setting [9]), 1 µM. Besides, the IC50 on CypC and against Cyp40 was above 10 µM each time.

Consider `NCCOCCNC(=O)[C@@H]1CCNC(=O)/C=C/C(=O)N2CCC[C@](Cc3ccccc3)(C2)C(=O)N[C@@H](Cc2ccc(-c3ccncc3)cc2)C(=O)NCc2ccccc2CC(=O)N1`, for which the IC50 on PPIL1 (setting [1]) was 1.2 µM; at NKTR, above 100 µM; at CypB (setting [2]) it was 0.4 µM; on CypG (setting [4]), above 100 µM; on CypH (read-out: IC50 CypH, prolyl-isomerase inhibition, 5 nM cyclophilin) it was 60 µM; on CypH (setting [5]) it was 60 µM. Moreover, the IC50 on CypE (setting [6]) came out at 3 µM; on CypA (setting [7]), 2.5 µM; on PPWD1 (setting [8]), 6 µM; on CypD (setting [9]), 0.33 µM; at CypC it was 1.5 µM; against Cyp40 it was 0.9 µM.

As for `NCCOCCNC(=O)[C@@H]1CCNC(=O)/C=C/C(=O)N2CCC[C@](Cc3ccccc3)(C2)C(=O)N[C@@H](Cc2ccc(-c3ccc4c(C(=O)O)coc4c3)cc2)C(=O)NCc2ccccc2CC(=O)N1`, the 50% inhibitory concentration (IC50) at PPIL1 (setting [1]) is 0.32 µM; on NKTR, above 25 µM; on CypB (setting [2]) it was 0.26 µM; at CypG (setting [4]) it was above 25 µM; on CypH (setting [5]), above 25 µM; on CypE (setting [6]), 0.25 µM. For the same compound, the IC50 on CypA (setting [7]) was found to be 1.5 µM; at PPWD1 (setting [12]) it was 40 µM; on PPWD1 (setting [8]), 40 µM; at CypD (setting [9]), 0.11 µM; at CypC it was 13 µM; against Cyp40, 5 µM.

Turning to `NC(=O)[C@@H]1CCNC(=O)/C=C/C(=O)N2CCC[C@](Cc3ccccc3)(C2)C(=O)N[C@@H](Cc2ccc(-c3ccc(CC(C(=O)O)C(=O)O)cc3)cc2)C(=O)NCc2ccccc2CC(=O)N1`, the IC50 was above 50 µM at NKTR; 0.6 µM on CypB (setting [2]); above 50 µM at CypG (setting [4]); above 50 µM at CypH (setting [5]); 0.32 µM at CypE (setting [6]); 1.5 µM at CypA (setting [7]). Further, the IC50 is above 50 µM at PPWD1 (setting [8]), above 50 µM on CypC and 15 µM against Cyp40.

For the compound `NC(=O)[C@H]1CCNC(=O)/C=C/C(=O)N2CCC[C@@](Cc3ccccc3)(C2)C(=O)N[C@H](Cc2ccc(-c3ccc(CC(C(=O)O)C(=O)O)cc3)cc2)C(=O)NCc2ccccc2CC(=O)N1`, the IC50 on PPIL1 (setting [1]), at NKTR, on CypB (setting [2]), on CypG (setting [4]), at CypH (setting [5]) and at CypE (setting [6]) was above 50 µM in each case. In addition, the IC50 at CypA (setting [7]), on PPWD1 (setting [8]), at CypC and against Cyp40 was above 50 µM throughout.

For `Cc1cccc(C[C@@H]2NC(=O)[C@]3(Cc4ccccc4)CCCN(C3)C(=O)/C=C/C(=O)NCC[C@@H](C(=O)NCCOCCN)NC(=O)Cc3ccccc3CNC2=O)c1`, the IC50 was 10 µM on PPIL1 (setting [10]); 10 µM at PPIL1 (setting [1]); above 100 µM at NKTR; 23 µM on CypG (setting [4]); above 100 µM on CypH (setting [5]); 12 µM on CypE (setting [6]). Besides, the 50% inhibitory concentration (IC50) at CypA (setting [7]) stood at 10 µM; at PPWD1 (setting [8]) it was 100 µM; at CypD (setting [9]) it was 1.5 µM; on CypC, 7 µM; on Cyp40, 3 µM.
